In patent US5512269A, “Method of treating retained pulmonary secretions” (priority 1993, dated 1996):

Key:
[1] = tested on: canine trachea airway surface liquid; details: nebulized 50 μM, 0.7 ml delivered over 6 minutes; based on previous work
Description: 1. The Animal Model: The model developed employed 30 kg male dogs that were anesthetized with intravenous pentobarbital and maintained on a intravenous infusion of normal saline at 75 cc/hour. The dogs were intubated. Ventilatory support was provided by a Harvard™ piston pump. Adequate ventilation and oxygenation were documented by arterial blood gas studies. Peak airway pressures (PAP) were measured and continuous monitoring of hemoglobin saturation was accomplished by pulse oximetry.
Drug and vehicle were delivered through the endotracheal tube. The drug was nebulized employing a Pulmo-Aid™ Compressor and a DeVilbiss™ nebulizer. The drug (50 μM; 3 ml) in a saline vehicle or the saline vehicle alone (control) was nebulized for 6 minutes during which 0.7 ml thereof was delivered to the animal. […] After 6 minutes, a clean and dry nebulizer was exchanged for the test nebulizer containing the drug or vehicle. The investigators were blinded as to whether drug or vehicle was given.
2. Measurements of airway fluid: Airway liquid measurements were made by applying dry preweighed filter paper to the cartilaginous portions of the airway for 20 seconds. […] In order to account for evaporative losses from the filter papers when exposed to room air, the time required to place the papers on the scales and perform the initial weighing was recorded. […] A regression line was calculated. […]

## duramycin
Normal airway epithelium; dose response study
  dose at which resistance across the tissue began to fall (indication of toxicity): about 2×10^-6 M
Normal airway epithelium; duramycin-treated normal tissues
  tissue damage: ability to respond to ATP and forskolin after duramycin treatment: not significantly damaged
[1]
  concentration of duramycin achieved in the airway: about 3×10^-7 M
